In US20120189670A1, “PHARMACEUTICAL COMPOSITIONS AND FORMULATIONS INCLUDING INHIBITORS OF THE PLECKSTRIN HOMOLOGY DOMAIN AND METHODS FOR USING SAME” (priority 2009, published 2012):

Tests used:
HT-29 lung cancer cells = assay: MTT cell survival in HT-29 cells (Table 2); assay type: cell-based; settings: Homo sapiens
Excerpt: AKT inhibition leads to cellular apoptosis.

PH domain of PDK1 = target: T1, PH domain of PDK1 (Homo sapiens, UniProt O15530); assay: SPR direct binding, KD, PDK1 PH domain; settings: Table 10, SPR; read-out: PDK1 PH mKD
T1 sequence (O15530 459-550 limits assumed): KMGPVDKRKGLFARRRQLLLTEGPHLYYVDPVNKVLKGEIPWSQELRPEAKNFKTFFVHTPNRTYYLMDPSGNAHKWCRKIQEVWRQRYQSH

| Structure (SMILES) | IC50 (HT-29 lung cancer cells) [µM] | Kd (PH domain of PDK1) [µM] |
| --- | --- | --- |
| CC1=NN(C(=O)c2ccc(Cl)cc2)C(=O)C1/N=N/c1ccc(S(=O)(=O)Nc2ncccn2)cc1 (stereo not drawn) [Compound 316, (E)-4-((1-(4-chlorobenzoyl)-3-methyl-5-oxo-4,5-dihydro-1H-pyrazol-4-yl)diazenyl)-N-(pyrimidin-2-yl)benzenesulfonamide] | 25 | 31.3 |
| CC1=NN(C(=O)c2ccccc2)C(=O)C1/N=N/c1ccc(S(=O)(=O)Nc2ncccn2)cc1 (stereo not drawn) [Compound 331] | – | 0.17 ± 0.1 |
